The subject of the experiment is pectic acid lyases from Example 3 and Example 8. In words: Effects of a specific inhibitor on residual activity. Format: biochemical, Bacillus sp. KSM-P15. The note with it: inhibitor 1 mM, 50 mM Tris-HCl buffer pH 7.5, 30°C, one hour; both enzymes.

Molecules are shown by their SMILES.

Take `O=[N+]([O-])c1cc([N+](=O)[O-])c(S(=O)(=O)O)c([N+](=O)[O-])c1`: the percentage inhibition is 75-80%.

Values taken from patent publication EP1500700B1, “Use of a pectic acid lyase in a detergent” (KAO CORPORATION, priority 1997, dated 1998).
